Experimental data published in patent publication US20220356174A1, “PYRIDIN-2-ONE COMPOUNDS USEFUL AS SMARCA2 ANTAGONISTS” (Epizyme, Inc., priority 2018, published 2022).

Chains of the proteins cited; added tags and fusions are not shown.
UniProt P51532, whole entry: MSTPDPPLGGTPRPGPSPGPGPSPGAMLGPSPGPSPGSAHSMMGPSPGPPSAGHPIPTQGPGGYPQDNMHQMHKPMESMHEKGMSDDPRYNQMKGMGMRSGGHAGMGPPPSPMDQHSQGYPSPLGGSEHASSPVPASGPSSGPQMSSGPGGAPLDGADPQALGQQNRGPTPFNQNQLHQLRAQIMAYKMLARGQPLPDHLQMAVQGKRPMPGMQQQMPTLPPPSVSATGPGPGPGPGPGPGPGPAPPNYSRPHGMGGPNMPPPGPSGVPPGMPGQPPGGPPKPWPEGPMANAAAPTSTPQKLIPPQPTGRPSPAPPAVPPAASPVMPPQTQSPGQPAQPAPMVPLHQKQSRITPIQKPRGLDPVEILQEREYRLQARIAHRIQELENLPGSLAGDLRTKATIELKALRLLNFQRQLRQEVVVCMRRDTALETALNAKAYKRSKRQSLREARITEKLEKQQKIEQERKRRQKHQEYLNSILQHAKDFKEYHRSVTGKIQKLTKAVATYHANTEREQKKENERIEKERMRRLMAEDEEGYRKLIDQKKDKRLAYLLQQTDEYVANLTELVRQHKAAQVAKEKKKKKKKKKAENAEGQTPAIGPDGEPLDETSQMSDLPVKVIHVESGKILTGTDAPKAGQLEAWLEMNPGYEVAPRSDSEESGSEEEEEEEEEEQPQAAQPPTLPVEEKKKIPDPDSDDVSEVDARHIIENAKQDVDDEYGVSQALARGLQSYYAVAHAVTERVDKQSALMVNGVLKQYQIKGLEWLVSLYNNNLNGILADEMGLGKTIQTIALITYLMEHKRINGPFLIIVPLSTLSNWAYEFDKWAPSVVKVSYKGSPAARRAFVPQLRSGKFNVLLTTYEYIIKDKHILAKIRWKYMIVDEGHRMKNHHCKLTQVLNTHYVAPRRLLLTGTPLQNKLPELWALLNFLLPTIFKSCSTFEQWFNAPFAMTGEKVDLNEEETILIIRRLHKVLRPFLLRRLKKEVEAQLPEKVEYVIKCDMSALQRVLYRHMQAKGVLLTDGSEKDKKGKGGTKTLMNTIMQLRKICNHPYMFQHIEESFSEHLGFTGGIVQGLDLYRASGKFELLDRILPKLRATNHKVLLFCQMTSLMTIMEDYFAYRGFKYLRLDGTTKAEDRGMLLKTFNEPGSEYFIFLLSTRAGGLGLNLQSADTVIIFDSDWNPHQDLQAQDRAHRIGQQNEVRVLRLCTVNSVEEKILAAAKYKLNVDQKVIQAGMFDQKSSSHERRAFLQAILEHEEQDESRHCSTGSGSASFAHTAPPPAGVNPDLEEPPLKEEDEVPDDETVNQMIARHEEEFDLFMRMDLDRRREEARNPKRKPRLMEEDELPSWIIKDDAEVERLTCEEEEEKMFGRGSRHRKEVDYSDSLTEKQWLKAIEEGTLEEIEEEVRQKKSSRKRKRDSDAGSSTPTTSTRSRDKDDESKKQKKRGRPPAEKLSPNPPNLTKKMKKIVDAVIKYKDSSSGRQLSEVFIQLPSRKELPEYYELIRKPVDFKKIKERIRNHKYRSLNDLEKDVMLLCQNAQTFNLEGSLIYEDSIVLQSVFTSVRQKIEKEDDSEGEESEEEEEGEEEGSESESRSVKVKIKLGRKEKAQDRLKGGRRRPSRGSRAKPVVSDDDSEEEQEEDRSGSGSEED

Target: FL-SMARCA4 (Homo sapiens, UniProt P51532)
Experiment: SMARCA4 ATPase activity assay (ADP-Glo, chicken mononucleosome substrate)

SMILES	IC50 (FL-SMARCA4 IC50) [nM]	IC50 (FL-SMARCA4 IC50, Table 3.2, ATPase assay, enzyme 5 nM, ATP 250 uM, chicken mononucleosome 10 nM, 30 min preincubation) [nM]
O=C(Nc1cc(Cl)c(=O)n(CC(F)F)c1)c1cc(Cl)c(C(F)(F)F)s1 [Compound 79d]	310	
CCn1cc(NC(=O)c2snc(Cl)c2Cl)ccc1=O [Compound 34]		> 50000
